Laboratory results: patent publication US8030448

Molecular target: (Pro-Hyp-Gly)8-amide
Test: ultrafiltration at 4 C with Microcon YM-100, filtrate by HPLC; control triple helix

(Pro-Hyp-Gly)8-amide (peptide)
percent of peptides passing the ultrafiltration membrane (cut-off 100,000 MW): 56%
